# Patent publication US6444668B1 (Wyeth, priority 1999, dated 2002)
# Chains of the proteins cited; added tags and fusions are not shown.
# UniProt P06401, whole entry: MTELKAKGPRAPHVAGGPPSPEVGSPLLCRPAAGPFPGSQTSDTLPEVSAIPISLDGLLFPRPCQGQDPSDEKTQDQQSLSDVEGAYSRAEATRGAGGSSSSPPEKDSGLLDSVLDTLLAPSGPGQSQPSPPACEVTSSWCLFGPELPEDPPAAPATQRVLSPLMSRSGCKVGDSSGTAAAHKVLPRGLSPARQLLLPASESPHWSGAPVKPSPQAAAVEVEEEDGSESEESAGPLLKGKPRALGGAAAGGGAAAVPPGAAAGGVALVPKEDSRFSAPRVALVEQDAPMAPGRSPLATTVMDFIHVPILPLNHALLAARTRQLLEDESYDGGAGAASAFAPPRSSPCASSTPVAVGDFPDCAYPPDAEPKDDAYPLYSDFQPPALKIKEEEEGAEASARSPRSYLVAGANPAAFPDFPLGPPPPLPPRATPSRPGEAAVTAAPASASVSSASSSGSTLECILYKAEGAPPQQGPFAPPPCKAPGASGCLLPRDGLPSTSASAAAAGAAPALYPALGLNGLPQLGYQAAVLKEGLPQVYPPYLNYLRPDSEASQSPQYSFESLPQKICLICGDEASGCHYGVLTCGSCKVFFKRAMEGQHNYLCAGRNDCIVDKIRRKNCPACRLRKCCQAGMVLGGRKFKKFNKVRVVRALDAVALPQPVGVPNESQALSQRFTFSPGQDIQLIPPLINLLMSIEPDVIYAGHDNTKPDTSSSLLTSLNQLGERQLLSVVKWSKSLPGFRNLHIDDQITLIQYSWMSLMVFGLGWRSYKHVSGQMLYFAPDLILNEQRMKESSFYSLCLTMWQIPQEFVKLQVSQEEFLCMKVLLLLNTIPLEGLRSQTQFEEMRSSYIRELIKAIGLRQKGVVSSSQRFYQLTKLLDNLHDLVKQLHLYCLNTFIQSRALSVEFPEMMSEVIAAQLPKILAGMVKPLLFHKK
# What was measured:
# human PR = human PR (Homo sapiens, UniProt P06401); test: PRE-luciferase assay in CV-1 cells; format: cell-based; settings: read-out: hPR CV-1 IC50; PR antagonist; CV-1 cells co-transfected with human PR and PRE-luciferase; in the presence of 3 nM progesterone
# [1] = tested on: rat uterine decidualization; test: Rat decidualization assay; settings: half-maximal decrease in EC50 progesterone induced decidual response
structure (smiles),measurement,setting,value
"CC1(C)OC(=O)Nc2ccc(-c3ccc(F)c(C#N)c3)cc21 [Compound 1, 5-(4,4Dimethyl-2-oxo-1,4-dihydro-2H-benzo[d][1,3]oxazin-6-yl)-2-fluoro-benzonitrile]",IC50,human PR,13 nM
same,Decidualization IC50,[1],6.96 ± 0.84 mg/kg
